The list shows a part of the results, in another mix than the full data. The source made the active and inactive calls.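 How the source made its calls: active means mean cytotoxicity at 5 µM above about 25% (limit read from the data); inactive means the rest.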
Assay: cytotoxicity in Sufu-KO-LIGHT cells, confirmation, cytotoxicity control for Gli-SUFU antagonist project, cell-based, ATP luminescence, single concentration (AID 651994);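 further: cells exposed to compound overnight for roughly 16 to 18 hours; plate controls were DMSO wells with cells for no effect and medium without cells for full effect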
Conditions: at 5 µM, stronger effect = higher value

For `CC1=C2N=C(C=C3N=C(C(C)=C4[N-][C@@](C)([C@@H]5N=C1[C@](C)(CCC(=O)NC[C@@H](C)OP(=O)([O-])O[C@H]1[C@@H](O)[C@@H](n6cnc7cc(C)c(C)cc76)O[C@@H]1CO)[C@H]5CC(N)=O)[C@@](C)(CC(N)=O)[C@@H]4CCC(N)=O)[C@@](C)(CC(N)=O)[C@@H]3CCC(N)=O)C(C)(C)[C@@H]2CCC(N)=O.[C-]#N.[Co+3]`, which cytotoxicity is on record?
The cytotoxicity was inactive: 11.5%.
